These molecules were tested against T1, ULK1 (Homo sapiens, UniProt O75385) (assay: ULK1 inhibition assay). Settings: * = tested as a mixture of regioisomers.
T1 sequence (O75385 1-1050): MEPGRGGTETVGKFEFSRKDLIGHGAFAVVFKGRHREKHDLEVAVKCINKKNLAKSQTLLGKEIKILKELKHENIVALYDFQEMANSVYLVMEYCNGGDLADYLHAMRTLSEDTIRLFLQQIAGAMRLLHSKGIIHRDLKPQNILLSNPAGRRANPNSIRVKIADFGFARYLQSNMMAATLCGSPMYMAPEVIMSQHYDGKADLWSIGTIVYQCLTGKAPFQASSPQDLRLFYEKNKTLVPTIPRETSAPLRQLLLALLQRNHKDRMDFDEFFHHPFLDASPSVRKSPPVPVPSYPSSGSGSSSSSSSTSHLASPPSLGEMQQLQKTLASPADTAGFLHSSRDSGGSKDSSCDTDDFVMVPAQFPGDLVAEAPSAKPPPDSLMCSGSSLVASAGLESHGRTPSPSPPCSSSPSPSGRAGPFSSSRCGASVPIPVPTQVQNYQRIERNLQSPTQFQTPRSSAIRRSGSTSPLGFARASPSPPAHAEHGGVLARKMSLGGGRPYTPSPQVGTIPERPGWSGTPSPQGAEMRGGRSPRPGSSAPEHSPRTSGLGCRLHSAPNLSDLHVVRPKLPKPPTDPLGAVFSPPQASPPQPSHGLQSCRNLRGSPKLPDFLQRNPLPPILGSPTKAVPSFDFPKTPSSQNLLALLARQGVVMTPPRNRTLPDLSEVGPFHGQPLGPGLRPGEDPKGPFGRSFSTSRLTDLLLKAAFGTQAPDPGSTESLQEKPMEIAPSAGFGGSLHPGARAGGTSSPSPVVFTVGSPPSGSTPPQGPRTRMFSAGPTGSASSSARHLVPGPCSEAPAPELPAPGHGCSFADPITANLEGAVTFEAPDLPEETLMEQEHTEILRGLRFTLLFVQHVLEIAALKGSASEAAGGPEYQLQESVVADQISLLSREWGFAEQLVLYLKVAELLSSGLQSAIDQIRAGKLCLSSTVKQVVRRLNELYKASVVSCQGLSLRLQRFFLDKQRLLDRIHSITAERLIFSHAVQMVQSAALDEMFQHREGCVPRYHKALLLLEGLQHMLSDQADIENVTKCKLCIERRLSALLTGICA
Format: biochemical

SMILES	IC50 [nM]
FC(F)(F)c1cnc(Nc2ccc3nc[nH]c3c2)nc1NC1CC1 [Compound 211]	< 200
O=C1CCc2cc(Nc3ncc(C(F)(F)F)c(NCC(F)(F)F)n3)ccc2N1 [Compound 222]	< 200
FC(F)(F)c1cnc(Nc2ccc3[nH]ncc3c2)nc1NC1CC1 [Compound 195]	< 200

Results, then the molecule that gave them:

IC50 [nM]	SMILES
< 200	FC(F)(F)c1cnc(Nc2ccc3nccnc3c2)nc1NC1CC1 [Compound 305]
200 to 2000	Nc1n[nH]c(Nc2nc(Nc3ccc4c(c3)CCC(=O)N4)ncc2C(F)(F)F)n1 [Compound 243]
> 2000	CS(=O)(=O)Nc1nc(Nc2ccc3c(c2)CCC(=O)N3)ncc1C(F)(F)F [Compound 226]
< 200	Oc1ccccc1Nc1ncc(C(F)(F)F)c(NC2CC2)n1 [Compound 255]
